Antibody variant affinities, Ab-14 heavy chain, assay B

Target: peptide PDVDLGDISGINAS, taken from heptad repeat 2 (HR2) of SARS-CoV-2 spike.

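The parent was found by panning a naive human phage display library on the peptide. The variants were designed computationally from a first round of random CDR variants and then made and measured. Several design methods are mixed in this list. Affinity was read by AlphaSeq, a pooled yeast mating assay with surface-displayed partners. After mating in shaken culture at 30 °C for 16 h, diploids were selected and their barcode pairs sequenced. The ratio of observed to expected reads was calibrated, replicate by replicate, on BCL2-family standards whose Kd was known from biolayer interferometry. The assay was run in six technical replicates.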

Parent scFv Ab-14: VH joined to VL by the linker GGGGSGGGGSGGGGS. Changes lie in the heavy chain CDRs alone.
VH: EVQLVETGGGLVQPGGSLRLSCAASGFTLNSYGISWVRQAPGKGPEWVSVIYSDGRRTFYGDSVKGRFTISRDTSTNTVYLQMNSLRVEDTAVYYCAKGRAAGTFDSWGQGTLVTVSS
VL: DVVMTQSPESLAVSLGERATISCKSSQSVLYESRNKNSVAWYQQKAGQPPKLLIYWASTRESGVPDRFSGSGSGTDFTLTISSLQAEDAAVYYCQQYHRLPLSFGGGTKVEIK

The parent's heavy chain CDRs are GFTLNSYGIS, VIYSDGRRTFYGDSVK, GRAAGTFDS; each variant's own CDRs replace them letter for letter. Affinities are written as log10 Kd with Kd in nM; a lower number is a better binder. A mean of the replicates is given; it leaves out those without a signal. "nd" marks a missing value. The strain was present, yet no cells mated with the target were sequenced in any replicate, which points to weak or no binding.

CDR-H1	CDR-H2	CDR-H3	mean, log10 nM	detected
GIDLEEYGIS	VIYADGMRKAYINSVK	GEDSVTTFV	nd	0 of 6
GFDLSSYGIS	VIYSDGRRCFYGDSVK	GRAAGWFNS	nd	0 of 6
GFDLNEYGIS	VIYADGRRTFYADSVK	GEFAGTFDM	-0.36	6 of 6
GFALNSYGIS	VIYSDGRRTFYIDSVK	GRAAGQFDS	nd	0 of 6
GFTLDSYGIS	VIYSDGRRTFYSDSVK	GRAVGTFDS	nd	0 of 6
GFTLNSYGIS	VIYSDGRRTFYSGSVK	TRAAGTFDS	1.27	6 of 6
GFDLNEYGIS	VIYADGSRTAYVDSVK	GNVAGTFDV	-0.51	6 of 6
GFDLNEYGIS	VIYADGRRTFYADSVK	GEAAGTFDL	-0.33	6 of 6
GFSLNSYGIS	VIYSDGRRTFYGDNVK	GEAAGTFDT	0.22	6 of 6
GFTLNSYGIS	VIYADGRRTFYGDSVK	GNAAGTFDS	-0.01	6 of 6
GFTLENYGIS	VIYSDGRRTFYGDSVK	GRAAGTFIS	nd	0 of 6
GFSLNSYGIS	VIYSDGRRTFYKDSVK	GKEAGTFDS	-0.08	6 of 6
GFTLDSYGIS	VIYSDGRRTFYGDSVK	GRAAGTFHD	nd	0 of 6
GFTLNSYGIS	VIYSDGRRTFYADSVK	GRTAGTFDS	2.01	5 of 6
GFDLDEYGIS	VIYADGQRTAYADNVK	GEVAGTFDV	-0.28	6 of 6
GFNLNEYGIS	VIYADGKRTFYADSVK	GQQAGTFDM	-0.52	6 of 6
GFSLNSYGIS	VIYSDGRRTFYADMVK	GNAAGTFDS	0.85	6 of 6
TFTLNMYGIS	VIYSDGRRTFYDDSVR	GRAAGTFDS	-0.42	6 of 6
GFDIEEYGIS	VIYADGIRQAYKNDVK	GMNVGRFSV	nd	0 of 6
GFTLNEYGIS	VIYSDGRRTFYGDSVK	GRAAGIFDS	nd	0 of 6
GFTLLSYGIS	VIYSDGRRTFYGDSVK	GRAAGWFSS	nd	0 of 6
GFDLNSYGIS	VIYSDGRRTFYKDSVK	GRTAGTFDT	-0.09	6 of 6
GFNLNSYGIS	VIYSDGKRTFYGDSVK	GRTAGTFDS	-0.03	6 of 6
GFDLDEYGIS	VIYADGQRTAYADSVK	GGNAGTFDL	-0.43	6 of 6
GFQLNSYGIS	VIYSDGRRTFYGDSVK	GKAAGTFDS	1.90	4 of 6
GRTLDSYGIS	VIYSDGRFTFYGDSVK	GRAAGTALS	nd	0 of 6
GFGLSEYGIS	VIYADGVRASYADNVK	GFNFGQDIL	nd	0 of 6
GFDLDEYGIS	VIYADGMRTAYIDSVK	GNNAGTFDV	0.50	6 of 6
GFTLEDYGIS	VIYSDGRRTFYTDSVK	RRAAGTFDS	nd	0 of 6
GFDLNEYGIS	VIYADGMRTAYADSVK	GANAGTFDQ	-0.70	6 of 6
GFNLNSYGIS	VIYSDGRRTFYTDSVK	GNAAGTFDS	0.49	6 of 6
GFDLNSYGIS	VIYSDGRRTFYSDSVK	GRTAGTFDS	-0.07	6 of 6
GFGLNSYGIS	VIYSDGRRTFYGDEVK	GRAAGHFDS	1.87	1 of 6
GFTLNQYGIS	VIYSDGRRTFYSDSIK	GRAAGFFDS	nd	0 of 6
GFDLNEYGIS	VIYADGQRTAYADSVK	GKVAGTFDF	-0.27	6 of 6
GFDLGEYGIS	VIYADGSRSAYATNVK	GGSVYKDDV	nd	0 of 6
GFTLNSYGIS	VIYSDGRRTFYADNVK	GKAAGTFDV	1.17	6 of 6
GFKLNEYGIS	VIYSDGRRTFYGDSVK	GRQAGTFDS	0.35	6 of 6
GFNLNSYGIS	VIYADGIRTFYGDSVK	GRNAGTFDS	-0.01	6 of 6
GFSLNSYGIS	VIYSDGRRTFYADSVK	GRMAGTFDN	0.91	5 of 6
GFDLNEYGIS	VIYADGQRTAYTDSVK	GNNAGTFDV	-0.41	6 of 6
GFDLNEYGIS	VIYADGRRTAYTDSVK	GETAGTFDV	-0.18	5 of 6
GFDLNEYGIS	VIYADGKRTAYLDSVK	GEAAGTFDS	0.06	6 of 6
GFSLDEYGIS	VIYADGRRTFYQDDVK	GNVAGTFDA	-0.60	6 of 6
GFDLNSYGIS	VIYSDGRRTFYGDSVK	GRAKGTFNS	nd	0 of 6
GFDINEYGIS	VIYADGMRRAYAQQVK	GHGEVVSMD	nd	0 of 6
GFDLDEYGIS	VIYADGRRTFYKDSVK	GSNAGTFDI	0.53	5 of 6
GFDLNEYGIS	VIYADGRRTFYADSVK	GSEAGTFNM	-0.72	6 of 6
GFTLNEYGIS	VIYSDGRRTFYADEVK	GRAAGTFDS	0.10	6 of 6
GFDLNEYGIS	VIYADGSRTFYSDSVK	GNQAGFFDV	nd	0 of 6
GFDLNEYGIS	VIYADGQRTFYADSVK	GENAGTFDQ	-0.46	6 of 6
GFDLNEYGIS	VIYADGRRTAYANSVK	GETAGTFDV	-0.73	6 of 6
GFTLNSYGIS	VVYSDGLRTFYGDSVK	GRAAGTFDS	nd	0 of 6
GYTLNEYGIS	VIYSDGRRTFYKDSVK	GRIAGTFDQ	1.77	5 of 6
GETLNEYGIS	VIYSDGMRTFYGDSVK	GRAAGTFDS	nd	0 of 6
GFTLNDYGIS	VIYSDSRRTDYIDSVK	GRAAGTFDS	1.13	1 of 6
GFTLNEYGIS	VIYSDGRRTFYGDSVK	GRAAGTFRL	nd	0 of 6
PFTLDSYGIS	VIYSDGRRTFYGDSVK	ARAAMTALS	nd	0 of 6
GFTLNSYGIS	VIYSDGRRTFYADSVK	GRAAGTFDW	1.44	4 of 6
GFTLNSYGIS	VIYSDGERTFYVDSVK	GRAAGTFDS	1.84	3 of 6
GFDLNEYGIS	VIYADGKRTFYSDSVK	GEAAGTFDS	-0.03	6 of 6
GFTLNDYGIS	VIYSDGRRTYYGESVK	GRAAGTFDS	0.71	3 of 6
GFTLNEYGIS	VIYSDGRRTFYGDSVK	GRAAGTFST	1.58	4 of 6
GFDLNEYGIS	VIYADGKRTAYADSVK	GQNAGTFDM	-0.18	6 of 6
GFDLNEYGIS	VIYADGMRTAYTDDVK	GNVAGTFDI	-0.70	6 of 6
GFDLNEYGIS	VIYADGKRKAYADSVK	GNNAGTFDV	-0.25	6 of 6
GFDLDEYGIS	VIYADGRRTFYQDSVK	GQVAGTFDQ	-0.84	6 of 6
GFSLESYGIS	VIYSDGRRTFYHDSVK	GRAAGTFDS	0.55	4 of 6
GMNLDEYGIS	VIYADGLRYEYANTVK	GEMAGFFMD	nd	0 of 6
GFDLMEYGIS	VIYADGMRQAYANKFK	GGISDSGLI	nd	0 of 6
GFNLNEYGIS	VIYADGRRTFYADSVK	GGQAGTFDV	-0.15	5 of 6
GRTLNEYGIS	VIYADGRRTFYGDSVR	NKEAGTFDS	nd	0 of 6
GFDLNEYGIS	VIYADGRRTAYIDSVK	GYNAGTFDS	-0.38	6 of 6

The 11 strongest on average among those seen in every replicate, once more:

CDR-H1	CDR-H2	CDR-H3	mean, log10 nM	detected
GFDLDEYGIS	VIYADGRRTFYQDSVK	GQVAGTFDQ	-0.84	6 of 6
GFDLNEYGIS	VIYADGRRTAYANSVK	GETAGTFDV	-0.73	6 of 6
GFDLNEYGIS	VIYADGRRTFYADSVK	GSEAGTFNM	-0.72	6 of 6
GFDLNEYGIS	VIYADGMRTAYADSVK	GANAGTFDQ	-0.70	6 of 6
GFDLNEYGIS	VIYADGMRTAYTDDVK	GNVAGTFDI	-0.70	6 of 6
GFSLDEYGIS	VIYADGRRTFYQDDVK	GNVAGTFDA	-0.60	6 of 6
GFNLNEYGIS	VIYADGKRTFYADSVK	GQQAGTFDM	-0.52	6 of 6
GFDLNEYGIS	VIYADGSRTAYVDSVK	GNVAGTFDV	-0.51	6 of 6
GFDLNEYGIS	VIYADGQRTFYADSVK	GENAGTFDQ	-0.46	6 of 6
GFDLDEYGIS	VIYADGQRTAYADSVK	GGNAGTFDL	-0.43	6 of 6
TFTLNMYGIS	VIYSDGRRTFYDDSVR	GRAAGTFDS	-0.42	6 of 6

Of ten entries with the parent sequence, four were seen in most replicates (averages 0.34 to 2.37), three in one and three in none, so single entries are noisy. Background: pairings of all heavy chain designs with three empty control strains gave a value in 1% of cases (median 2.08, 5th percentile 0.84). Values in that range, when seen in few replicates, are hard to tell from nonspecific mating. A sequence measured in both rounds can read differently, since the two assays cover different ranges. The authors' rule: three or more of the six replicates give a measured affinity, fewer mean a poor binder.

Reference: Li et al. 2023, doi:10.1038/s41467-023-39022-2. File: FLAb, binding data.